Test results taken from US20240360179A1, “STAPLED PEPTIDES AND METHODS THEREOF” (FOG PHARMACEUTICALS, INC., priority 2021, published 2024).

Protein sequences, listed by entry. Tags and fused reporters are not part of them. Residues count along the entry.
UniProt P35222, 2-781: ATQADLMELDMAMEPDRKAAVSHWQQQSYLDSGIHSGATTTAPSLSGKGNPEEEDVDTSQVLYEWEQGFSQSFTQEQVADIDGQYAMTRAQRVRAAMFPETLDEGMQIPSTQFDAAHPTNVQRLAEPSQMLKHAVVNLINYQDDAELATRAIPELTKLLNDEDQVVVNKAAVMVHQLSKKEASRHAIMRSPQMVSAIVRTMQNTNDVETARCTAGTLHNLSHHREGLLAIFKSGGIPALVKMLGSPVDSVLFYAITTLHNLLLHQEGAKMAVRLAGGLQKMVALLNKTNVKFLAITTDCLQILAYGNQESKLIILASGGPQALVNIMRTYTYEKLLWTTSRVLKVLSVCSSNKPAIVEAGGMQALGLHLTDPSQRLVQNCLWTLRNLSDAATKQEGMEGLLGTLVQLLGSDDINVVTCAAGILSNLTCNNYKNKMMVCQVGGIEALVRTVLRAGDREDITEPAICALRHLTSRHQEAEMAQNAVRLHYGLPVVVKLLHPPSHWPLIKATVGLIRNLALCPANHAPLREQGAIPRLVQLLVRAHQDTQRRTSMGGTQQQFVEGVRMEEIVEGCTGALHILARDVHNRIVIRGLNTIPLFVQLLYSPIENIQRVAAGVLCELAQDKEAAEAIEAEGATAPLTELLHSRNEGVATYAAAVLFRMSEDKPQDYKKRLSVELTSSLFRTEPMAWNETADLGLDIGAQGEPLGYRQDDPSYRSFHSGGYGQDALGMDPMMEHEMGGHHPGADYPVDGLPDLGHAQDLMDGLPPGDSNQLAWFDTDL
UniProt P35222, whole entry: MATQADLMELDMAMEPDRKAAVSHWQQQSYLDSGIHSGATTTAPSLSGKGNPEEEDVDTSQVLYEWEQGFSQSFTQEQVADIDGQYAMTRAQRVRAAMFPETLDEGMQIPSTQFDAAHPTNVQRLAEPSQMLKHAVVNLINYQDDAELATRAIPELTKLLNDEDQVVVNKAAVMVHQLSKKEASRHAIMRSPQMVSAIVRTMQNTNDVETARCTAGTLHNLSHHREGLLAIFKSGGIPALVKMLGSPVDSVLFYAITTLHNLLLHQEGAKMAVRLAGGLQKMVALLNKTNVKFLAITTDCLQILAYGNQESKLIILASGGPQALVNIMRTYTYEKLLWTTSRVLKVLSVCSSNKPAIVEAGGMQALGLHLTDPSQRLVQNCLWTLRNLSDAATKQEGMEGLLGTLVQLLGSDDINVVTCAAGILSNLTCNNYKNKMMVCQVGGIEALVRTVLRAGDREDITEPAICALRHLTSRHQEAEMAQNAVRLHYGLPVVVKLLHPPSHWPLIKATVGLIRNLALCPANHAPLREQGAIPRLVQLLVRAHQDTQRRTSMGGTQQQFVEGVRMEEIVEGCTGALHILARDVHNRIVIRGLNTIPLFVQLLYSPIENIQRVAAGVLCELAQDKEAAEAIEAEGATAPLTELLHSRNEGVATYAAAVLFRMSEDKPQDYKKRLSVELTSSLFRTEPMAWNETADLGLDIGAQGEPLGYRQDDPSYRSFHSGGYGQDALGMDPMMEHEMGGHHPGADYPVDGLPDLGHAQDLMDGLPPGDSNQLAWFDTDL

Experiments:
[1] = target: TCF/LEF luciferase reporter in DLD1 cells (Homo sapiens, UniProt P35222); test: TCF reporter assay in DLD1 cells (4% or 20% FBS); type: cell-based; conditions: read-out: DLD1 4% Abs IC50, 4% FBS
[2] = target: T1, full-length B-Catenin (Uniprot ID P35222) (Homo sapiens, UniProt P35222); test: biochemical; type: binding; conditions: beta-Catenin FP IC50 (nM), competition fluorescence polarization
T1 construct: 10 nM full-length B-Catenin (Uniprot ID P35222)

[3] = target: beta-catenin/TCF4 interaction (Homo sapiens, UniProt P35222); test: cell-based; design: host or cells: HEK293; conditions: NanoBRET Abs IC50 (uM)

IC50 [2]	IC50 [3]	Molecule	IC50 [1]	IC50 ([3]; absolute IC50)
< 50 nM		CC(=O)N1CCC[C@]12CC=CCCCC1(CCCC=CCCCOC(=O)N3CC[C@@]4(C3)NC(=O)[C@H](CCCCNC(=O)CC[C@@H](C(=O)N[C@@H](C)C(=O)O)NC(=O)[C@H](Cc3csc5ccccc35)NC(=O)[C@H](Cc3ccsc3)NC4=O)NC(=O)[C@H](Cc3cccc(C(=O)O)c3)NC(=O)[C@H](C)NC(=O)C(C)(C)NC(=O)[C@H](Cc3cccc(C(=O)O)c3)NC(=O)[C@H](CC(=O)O)NC1=O)NC(=O)[C@H](CC(C)(C)C)NC(=O)[C@H](CC(=O)O)NC2=O (relative stereo) [I-350, Ac-PL3-Asp-Npg-B5-Asp-3COOHF-Aib-Ala-3COOHF-Lys*3-PyrS2-3Thi-BztA-GlnR*3-Ala-OH]		> 10 µM
50 to 200 nM	> 10 µM	CC(=O)N1CCC[C@]12CC=CCCCC1(CCCC=CCCCOC(=O)N3CC[C@@]4(C3)NC(=O)[C@H](CCC(=O)NCCCC[C@@H](C(N)=O)NC(=O)[C@H](Cc3csc5ccccc35)NC(=O)[C@H](Cc3ccsc3)NC4=O)NC(=O)[C@H](Cc3ccccc3)NC(=O)[C@H](C)NC(=O)[C@H](CCO)NC(=O)[C@H](CCC(N)=O)NC(=O)[C@H](CC(=O)O)NC1=O)NC(=O)[C@H](CC1CCCCC1)NC(=O)[C@H](CC(N)=O)NC2=O (relative stereo) [I-151, Ac-PL3-Asn-Cha-B5-Asp-Gln-Hse-Ala-Phe-GlnR*3-PyrS2-3Thi-BztA-Lys*3-NH2]		
< 50 nM	> 10 µM	CC(=O)N1CCC[C@]12CC=CCCCC1(CCCC=CCCCOC(=O)N3CC[C@@]4(C3)NC(=O)[C@H](CCCCn3cc(nn3)C[C@@H](C(N)=O)NC(=O)[C@H](Cc3csc5ccccc35)NC(=O)[C@H](Cc3ccsc3)NC4=O)NC(=O)[C@H](Cc3ccccc3)NC(=O)[C@H](C)NC(=O)[C@H](C)NC(=O)[C@H](CC(=O)O)NC(=O)[C@H](CC(=O)O)NC1=O)NC(=O)[C@H](CC(C)(C)C)NC(=O)[C@H](CC(=O)O)NC2=O (single isomer, unassigned) [I-17, Ac-PL3-Asp-Npg-B5-Asp-Asp-Ala-Ala-Phe-TriAzLys*3-PyrS2-3Thi-BztA-sAla*3-NH2]		
50 to 200 nM	> 10 µM	CC(=O)N1CCC[C@]12CCCCCCC1(CCCCCCCCOC(=O)N3CC[C@@]4(C3)NC(=O)[C@H](CCCCNC(=O)CC[C@@H](C(=O)N[C@@H](C)C(N)=O)NC(=O)[C@H](Cc3csc5ccccc35)NC(=O)[C@H](Cc3ccsc3)NC4=O)NC(=O)[C@H](Cc3ccccc3)NC(=O)[C@H](C)NC(=O)C(C)(C)NC(=O)[C@H](Cc3cccc(C(=O)O)c3)NC(=O)[C@H](CC(=O)O)NC1=O)NC(=O)[C@H](CC(C)(C)C)NC(=O)[C@H](CC(N)=O)NC2=O (relative stereo) [I-171, Ac-PL3-Asn-Npg-B5-Asp-3COOHF-Aib-Ala-Phe-Lys*3-PyrS2-3Thi-BztA-GlnR*3-Ala-NH2]		

Second part, the molecule before the results:

Molecule	IC50 [2]	IC50 [3]	IC50 [1]	IC50 ([3]; absolute IC50)
Ac-PL3-Asp-Npg-B5-Asp-TfeGA-Ala-Ala-Phe-Lys*3-PyrS2-2F3MeF-BztA-GlnR*3-Aib-NH2 [I-126]			1 to 5 µM	
CC(=O)N1CCC[C@]12CC=CCCCC1(CCCC=CCCCOC(=O)N3CC[C@@]4(C3)NC(=O)[C@H](CCCCNC(=O)CCC[C@@H](C(=O)N[C@@H](C)C(N)=O)NC(=O)[C@H](Cc3csc5ccccc35)NC(=O)[C@H](Cc3ccsc3)NC4=O)NC(=O)[C@H](Cc3ccccc3)NC(=O)[C@H](C)NC(=O)[C@H](C)NC(=O)[C@H](Cc3cccc(C(=O)O)c3)NC(=O)[C@H](CC(=O)O)NC1=O)NC(=O)[C@H](CC(C)(C)C)NC(=O)[C@H](CC(=O)O)NC2=O (relative stereo) [I-183, Ac-PL3-Asp-Npg-B5-Asp-3COOHF-Ala-Ala-Phe-Lys*3-PyrS2-3Thi-BztA-hGlnR*3-Ala-NH2]	< 50 nM	3 to 10 µM		
CC(=O)N1CCC[C@]12CC=CCCCC1(CCCC=CCCCOC(=O)N3CC[C@@]4(C3)NC(=O)[C@H](CCCCNC(=O)CC[C@@H](C(=O)N[C@@H](C)C(N)=O)NC(=O)[C@H](Cc3csc5ccccc35)NC(=O)[C@H](Cc3ccsc3)NC4=O)NC(=O)[C@H](Cc3ccccc3)NC(=O)[C@H](C)NC(=O)[C@](C)(CO)NC(=O)[C@H](Cc3cccc(C(=O)O)c3)NC(=O)[C@H](CC(=O)O)NC1=O)NC(=O)[C@H](CC(C)(C)C)NC(=O)[C@H](CC(=O)O)NC2=O (relative stereo) [I-435, Ac-PL3-Asp-Npg-B5-Asp-3COOHF-aMeS-Ala-Phe-Lys*3-PyrS2-3Thi-BztA-GlnR*3-Ala-NH2]	< 50 nM			> 10 µM
